Reference: patent publication US7704990B2, “Agents for preventing and treating disorders involving modulation of the RyR receptors” (The Trustees of Columbia University in the City of New York, priority 2005, dated 2010)
Read-outs that look alike come from different tables or passages of the source.

Chains of the proteins cited; added tags and fusions are not shown.
UniProt Q92736, whole entry P2328S: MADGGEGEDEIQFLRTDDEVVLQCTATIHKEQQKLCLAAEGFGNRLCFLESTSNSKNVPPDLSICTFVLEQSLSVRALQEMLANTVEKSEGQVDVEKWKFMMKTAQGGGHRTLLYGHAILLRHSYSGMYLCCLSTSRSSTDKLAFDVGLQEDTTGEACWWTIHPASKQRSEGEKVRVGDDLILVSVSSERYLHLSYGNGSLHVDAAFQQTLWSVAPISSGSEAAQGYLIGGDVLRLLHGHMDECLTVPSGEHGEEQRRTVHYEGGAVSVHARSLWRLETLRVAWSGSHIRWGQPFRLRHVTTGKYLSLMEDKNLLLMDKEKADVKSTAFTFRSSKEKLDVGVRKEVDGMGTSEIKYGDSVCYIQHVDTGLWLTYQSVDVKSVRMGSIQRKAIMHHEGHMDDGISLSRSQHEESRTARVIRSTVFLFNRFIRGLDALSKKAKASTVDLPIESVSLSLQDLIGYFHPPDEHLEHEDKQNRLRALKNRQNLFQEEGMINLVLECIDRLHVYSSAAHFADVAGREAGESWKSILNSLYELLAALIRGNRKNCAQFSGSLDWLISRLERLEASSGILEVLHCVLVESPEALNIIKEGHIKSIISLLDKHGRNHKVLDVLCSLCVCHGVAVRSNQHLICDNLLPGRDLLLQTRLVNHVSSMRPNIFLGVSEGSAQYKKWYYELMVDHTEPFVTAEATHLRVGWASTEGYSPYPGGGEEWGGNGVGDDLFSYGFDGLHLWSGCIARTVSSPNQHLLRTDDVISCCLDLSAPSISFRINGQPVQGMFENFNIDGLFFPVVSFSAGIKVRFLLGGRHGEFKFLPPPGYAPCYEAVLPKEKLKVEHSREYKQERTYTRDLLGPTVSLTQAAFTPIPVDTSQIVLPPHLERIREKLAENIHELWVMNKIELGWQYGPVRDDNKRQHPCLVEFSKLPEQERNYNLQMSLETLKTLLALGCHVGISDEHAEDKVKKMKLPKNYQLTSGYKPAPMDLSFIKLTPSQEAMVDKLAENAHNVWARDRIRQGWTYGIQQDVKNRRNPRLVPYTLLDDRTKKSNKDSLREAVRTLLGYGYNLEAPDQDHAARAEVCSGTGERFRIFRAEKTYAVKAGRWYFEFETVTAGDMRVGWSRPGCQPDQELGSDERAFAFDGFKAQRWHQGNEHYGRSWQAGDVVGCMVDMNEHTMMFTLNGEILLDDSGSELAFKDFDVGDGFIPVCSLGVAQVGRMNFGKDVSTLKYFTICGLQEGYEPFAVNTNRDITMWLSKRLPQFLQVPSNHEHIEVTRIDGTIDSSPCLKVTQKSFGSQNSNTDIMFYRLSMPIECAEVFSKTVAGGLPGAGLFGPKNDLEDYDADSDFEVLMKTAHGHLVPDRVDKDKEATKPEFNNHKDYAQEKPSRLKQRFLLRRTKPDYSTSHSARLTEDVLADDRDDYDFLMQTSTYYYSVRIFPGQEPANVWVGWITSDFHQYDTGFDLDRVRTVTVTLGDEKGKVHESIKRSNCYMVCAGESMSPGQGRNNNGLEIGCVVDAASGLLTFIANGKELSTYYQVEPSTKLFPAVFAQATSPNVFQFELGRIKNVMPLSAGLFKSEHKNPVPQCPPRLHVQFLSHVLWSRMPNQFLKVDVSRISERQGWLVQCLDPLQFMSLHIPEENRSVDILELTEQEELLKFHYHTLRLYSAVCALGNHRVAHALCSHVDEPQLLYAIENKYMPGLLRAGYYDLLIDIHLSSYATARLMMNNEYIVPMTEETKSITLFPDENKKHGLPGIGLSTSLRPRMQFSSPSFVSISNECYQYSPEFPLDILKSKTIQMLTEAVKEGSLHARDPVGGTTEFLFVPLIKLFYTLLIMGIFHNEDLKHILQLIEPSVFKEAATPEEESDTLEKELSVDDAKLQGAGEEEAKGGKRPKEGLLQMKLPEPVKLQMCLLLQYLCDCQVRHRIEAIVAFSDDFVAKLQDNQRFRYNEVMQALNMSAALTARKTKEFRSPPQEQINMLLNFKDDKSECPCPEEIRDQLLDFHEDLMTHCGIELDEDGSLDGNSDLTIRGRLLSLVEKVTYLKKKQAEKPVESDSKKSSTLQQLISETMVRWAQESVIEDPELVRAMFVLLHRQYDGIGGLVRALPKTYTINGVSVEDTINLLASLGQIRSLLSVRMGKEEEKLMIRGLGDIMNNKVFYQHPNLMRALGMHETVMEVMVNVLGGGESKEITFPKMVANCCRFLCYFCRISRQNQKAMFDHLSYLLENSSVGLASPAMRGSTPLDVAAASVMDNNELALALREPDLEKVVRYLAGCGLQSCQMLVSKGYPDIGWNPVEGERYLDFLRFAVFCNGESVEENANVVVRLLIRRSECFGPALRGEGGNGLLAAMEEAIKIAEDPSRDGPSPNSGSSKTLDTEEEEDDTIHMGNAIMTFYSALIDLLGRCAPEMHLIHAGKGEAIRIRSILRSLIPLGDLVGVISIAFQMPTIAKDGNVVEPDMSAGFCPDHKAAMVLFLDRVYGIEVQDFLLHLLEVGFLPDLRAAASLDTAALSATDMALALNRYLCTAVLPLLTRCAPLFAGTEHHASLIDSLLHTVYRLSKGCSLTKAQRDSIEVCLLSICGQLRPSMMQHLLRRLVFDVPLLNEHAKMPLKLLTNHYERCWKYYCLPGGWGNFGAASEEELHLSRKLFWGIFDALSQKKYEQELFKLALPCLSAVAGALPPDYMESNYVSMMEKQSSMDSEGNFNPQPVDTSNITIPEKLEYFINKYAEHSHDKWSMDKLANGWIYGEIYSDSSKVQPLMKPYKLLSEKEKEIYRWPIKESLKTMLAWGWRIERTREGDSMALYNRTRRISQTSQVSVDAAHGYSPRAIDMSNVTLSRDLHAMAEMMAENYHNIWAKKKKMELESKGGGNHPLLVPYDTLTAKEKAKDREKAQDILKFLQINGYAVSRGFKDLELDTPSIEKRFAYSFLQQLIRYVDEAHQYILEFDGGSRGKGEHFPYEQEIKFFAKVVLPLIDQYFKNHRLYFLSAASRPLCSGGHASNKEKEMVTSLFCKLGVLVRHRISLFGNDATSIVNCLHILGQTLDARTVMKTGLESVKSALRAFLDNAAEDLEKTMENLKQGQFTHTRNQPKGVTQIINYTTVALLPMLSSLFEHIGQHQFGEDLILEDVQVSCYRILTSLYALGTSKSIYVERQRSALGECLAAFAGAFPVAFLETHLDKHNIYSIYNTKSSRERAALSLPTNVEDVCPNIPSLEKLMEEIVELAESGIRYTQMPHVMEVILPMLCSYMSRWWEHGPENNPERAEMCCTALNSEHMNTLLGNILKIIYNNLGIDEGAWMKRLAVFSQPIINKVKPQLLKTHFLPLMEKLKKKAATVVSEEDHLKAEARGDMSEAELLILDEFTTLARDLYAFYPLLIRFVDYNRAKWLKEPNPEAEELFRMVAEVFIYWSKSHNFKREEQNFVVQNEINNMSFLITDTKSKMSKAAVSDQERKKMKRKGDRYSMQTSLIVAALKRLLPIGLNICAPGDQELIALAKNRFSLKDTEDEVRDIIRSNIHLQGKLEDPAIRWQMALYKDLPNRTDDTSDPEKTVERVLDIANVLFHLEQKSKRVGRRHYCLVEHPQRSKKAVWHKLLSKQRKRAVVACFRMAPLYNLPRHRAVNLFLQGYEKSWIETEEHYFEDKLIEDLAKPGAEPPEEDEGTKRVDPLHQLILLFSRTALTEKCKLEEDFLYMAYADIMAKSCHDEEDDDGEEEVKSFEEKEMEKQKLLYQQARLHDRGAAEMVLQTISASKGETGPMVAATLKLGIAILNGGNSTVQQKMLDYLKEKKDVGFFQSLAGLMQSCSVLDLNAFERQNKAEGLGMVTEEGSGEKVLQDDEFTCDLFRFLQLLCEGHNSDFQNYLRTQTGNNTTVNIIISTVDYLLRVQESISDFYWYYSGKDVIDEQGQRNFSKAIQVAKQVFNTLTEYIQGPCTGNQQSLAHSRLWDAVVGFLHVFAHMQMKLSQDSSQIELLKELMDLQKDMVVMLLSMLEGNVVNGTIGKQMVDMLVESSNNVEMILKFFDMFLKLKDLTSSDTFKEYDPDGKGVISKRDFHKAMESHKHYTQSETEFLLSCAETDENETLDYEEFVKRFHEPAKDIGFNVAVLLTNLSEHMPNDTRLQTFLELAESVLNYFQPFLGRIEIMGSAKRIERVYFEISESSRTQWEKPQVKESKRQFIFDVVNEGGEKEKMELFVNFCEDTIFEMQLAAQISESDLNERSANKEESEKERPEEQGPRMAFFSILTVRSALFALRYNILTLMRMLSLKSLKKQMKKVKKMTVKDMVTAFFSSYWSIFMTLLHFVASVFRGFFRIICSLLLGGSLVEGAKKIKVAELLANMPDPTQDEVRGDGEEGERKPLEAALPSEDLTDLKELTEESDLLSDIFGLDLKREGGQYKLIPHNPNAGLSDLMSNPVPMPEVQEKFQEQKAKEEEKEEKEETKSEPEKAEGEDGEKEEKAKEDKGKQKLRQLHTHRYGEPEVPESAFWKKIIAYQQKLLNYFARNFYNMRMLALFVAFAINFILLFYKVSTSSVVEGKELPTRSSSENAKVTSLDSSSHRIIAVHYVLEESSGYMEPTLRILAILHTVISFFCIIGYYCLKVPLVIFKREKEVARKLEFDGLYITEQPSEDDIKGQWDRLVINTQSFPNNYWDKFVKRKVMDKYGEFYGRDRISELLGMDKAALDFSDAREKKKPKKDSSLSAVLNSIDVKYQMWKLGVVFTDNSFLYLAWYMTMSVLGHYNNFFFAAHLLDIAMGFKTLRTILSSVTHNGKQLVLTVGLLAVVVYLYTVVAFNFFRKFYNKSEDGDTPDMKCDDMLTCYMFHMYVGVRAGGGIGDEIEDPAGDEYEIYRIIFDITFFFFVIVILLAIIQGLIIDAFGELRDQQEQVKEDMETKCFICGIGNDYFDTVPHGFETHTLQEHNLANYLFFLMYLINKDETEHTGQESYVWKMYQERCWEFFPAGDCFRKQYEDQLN

Legend:
RyR2-P2328S = biological target: T1, RyR2-P2328S (Homo sapiens, UniProt Q92736, P2328S); experiment: Single-channel recordings of CPVT-associated RyR2-P2328S; assay type: biochemical; conditions: unphosphorylated RyR2-P2328S and PKA-phosphorylated RyR2-WT
T1 construct: made in house

RyR2 [1] = biological target: T2, RyR2 (Mus musculus, UniProt E9Q401); conditions: 0.5 mg/kg/h for 28 days post-myocardial infarction
[2] = biological target: T3, PKA phosphorylated RyR2 / calstabin2 (Homo sapiens, UniProt Q92736); conditions: cardiac RyR2 with calstabin2, immunoblotting
[3] = biological target: T3, PKA phosphorylated RyR2 / calstabin2
RyR2 [4] = biological target: T2, RyR2

COc1ccc2c(c1)CN(C(=O)CCN1CCC(Cc3ccccc3)CC1)CCS2.Cl [JTV-519, 4-[3-(4-benzylpiperidin-1-yl)propionyl]-7-methoxy-2,3,4,5-tetrahydro-1,4-benzothiazepine monohydrochloride]
baseline channel function (RyR2-P2328S): no influence | PKA phosphorylation of RyR2 (RyR2 [1]; calstabin-2 (FKBP12.6)-/- mice): not | PKA phosphorylation of RyR2 (RyR2 [1]; wildtype mice): reduces | concentration that increased the binding affinity of calstabin for RyR [2]: ≥ 50 nM | affinity of calstabin2 for PKA-phosphorylated RyR2 channels [3]: significantly increases | channel open probability (Po) (RyR2 [4]; exercised calstabin2+/- mice, vs untreated exercised mice): significantly reduced | channel open probability (Po) (RyR2 [4]; exercised calstabin2-/- deficient mice): did not result in channels with a low Po | depletion of calstabin2 from the RyR2 macromolecular complex (RyR2 [4]; haploinsufficient calstabin2+/- mice): reversed
